Where a name gives a salt, the structure may show the parent alone.
Target: HIF prolyl hydroxylase
Test: Inhibition of the activity of HIF prolyl hydroxylase (VBC complex binding test)
Assay type: biochemical
Excerpt: 1. In Vitro Tests for Determination of the Activity and Selectivity of HIF Prolyl 4-Hydroxylase Inhibitors 1.a) Inhibition of the Activity of HIF Prolyl Hydroxylase:
Hydroxylated HIF bonds specifically to the von Hippel-Lindau protein-elongin B-elongin C complex (VBC complex). This interaction occurs only if HIF is hydroxylated on a conserved prolyl radical. It is the basis for the biochemical determination of HIF prolyl hydroxylase activity.
A clear 96-well microtiter plate coated with NeutrAvidin HBC (Pierce) is incubated with blocker casein for 30 minutes. The plate is then washed three times with 200 μl each time of wash buffer (50 mM Tris, pH 7.5, 100 mM NaCl, 10% (v/v) blocker casein, 0.05% (v/v) Tween 20) per well. […] This peptide serves as a substrate for the prolyl hydroxylation and is bonded to the microtiter plate. […]
For quantitative determination of the prolyl hydroxylation, a fusion protein which contains both thioredoxin from E. coli and the VBC complex in 80 μl bonding buffer (50 mM Tris, pH 7.5, 120 mM NaCl) is added. […] The amount of bonded VBC complex is determined by measurement of the optical density at 450 nm. […]
Alternatively, a VBC complex coupled to europium (Perkin Elmer) can be used for detection of the prolyl hydroxylation. In this case, the amount of bonded VBC complex is determined by the fluorescence with respect to time. […]

Question: `CC(C)(C)COc1ccc(-n2[nH]cc(-c3cccnc3)c2=O)nc1` [Example 89, 2-[5-(2,2-Dimethylpropoxy)pyridin-2-yl]-4-pyridin-3-yl-1,2-dihydro-3H-pyrazol-3-one hydrochloride] was tested. Which IC50 did it give?
Answer: 3.7 µM
